In patent EP1931657B1, “NOVEL HIGH AFFINITY QUINOLINE-BASED KINASE LIGANDS” (Merck Sharp & Dohme Corp., priority 2005, dated 2007):

Target: CDK-2 (Homo sapiens, UniProt P24941)
Experiment: CDK-2 inhibition, fluorescence polarization displacement assay

For `Cc1cnc([C@H](Cc2ccc(O)cc2)NC(=O)c2cc(C(=O)O)c3cc(-c4cccc(C(F)(F)F)c4)ccc3n2)o1` [Compound 45], the IC50 was less than 1 µM.

`COC[C@H](Cc1ccc(O)cc1)NC(=O)c1cc(C(=O)OCCN(C)C)c2cc(-c3cccc(C(F)(F)F)c3)ccc2n1` [Compound 175] gave an IC50 greater than 40 µM.

In the case of `COC[C@H](Cc1ccc(O)cc1)NC(=O)c1cc(C(=O)OC[C@@H](N)C(C)C)c2cc(-c3cccc(C(F)(F)F)c3)ccc2n1` [Compound 176], the IC50 is reported as greater than 40 µM.
